{"source": "patent US20130197032A1", "about": "“[…] COMPOUNDS FOR THE TREATMENT OF NEUROLOGICAL AND […] DISORDERS” (A. CARLSSON RESEARCH AB, priority 2010, published 2013)", "key": {"[1]": {"target": "T1, D2 receptors (Homo sapiens, UniProt P14416)", "test": "BRET2 beta-arrestin-2 recruitment assay at D2", "format": "cell-based", "parameters": "expressed in transfected cells; host or cells: HEK-293T", "settings": "negative logarithm of EC50 in molar; HEK293T cells; mean ± SEM; read-out: BRET2 pEC50 (converted)"}, "[2]": {"target": "T1, D2 receptors", "test": "R-SAT functional assay at D2", "settings": "R-SAT pEC50, Table 2; negative logarithm of EC50 in molar; NIH3T3 cells; mean ± SEM"}, "[3]": {"target": "T1, D2 receptors", "test": "GTPγS binding assay at D2", "format": "biochemical", "parameters": "expressed in transfected cells", "settings": "negative logarithm of EC50 in molar; HEK293T membranes; mean ± SEM; read-out: GTPγS pEC50 (converted)"}, "[4]": {"target": "human D4 (variant 4.2) receptor (Homo sapiens, UniProt P21917, DEL265-296)", "test": "cell-based"}, "[5]": {"target": "5-HT2B receptors (Homo sapiens, UniProt P41595)", "test": "R-SAT assay 5-HT2B", "format": "cell-based", "parameters": "expressed in transfected cells; host or cells: NIH/3T3"}, "[6]": {"target": "T2, human 5-HT2A receptors (Homo sapiens, UniProt P28223)", "test": "R-SAT functional assay at 5-HT2A"}, "[7]": {"target": "T2, human 5-HT2A receptors", "test": "BRET2 beta-arrestin-2 recruitment assay at 5-HT2A"}, "[8]": {"target": "T2, human 5-HT2A receptors", "test": "Phosphatidyl inositol (PI) hydrolysis assay at 5-HT2A"}}, "data": [{"molecule": "CCCN1CCCC(c2cccc(O)c2)C1", "note": "(single isomer, unassigned; (+)) [(+)-3-PPP, [3-(3-hydroxyphenyl)-N-n-propyl]piperidine]", "values": [{"measurement": "EC50", "setting": "[1]", "value": 5.01, "unit": "µM"}, {"measurement": "EC50", "setting": "[2]", "value": 0.0398, "unit": "µM"}, {"measurement": "EC50", "setting": "[3]", "value": 0.0794, "unit": "µM"}]}, {"molecule": "CCCN1CCC[C@@H](c2cccc(S(C)(=O)=O)c2)C1", "note": "[(−)-OSU6162, (3S)-3-[3-(methylsulfonyl)phenyl]-1-propylpiperidine]", "values": [{"measurement": "EC50", "setting": "[4]", "value": "> 10", "unit": "µM"}]}, {"molecule": "CCCN1CCC[C@H](c2cccc(S(C)(=O)=O)c2)C1", "note": "[(+)-OSU6162, (3R)-3-[3-(methylsulfonyl)phenyl]-1-propylpiperidine]", "values": [{"measurement": "fold less potency at 5-HT2B receptors than (−)-OSU6162", "setting": "[5]", "value": "approximately 10 fold"}]}, {"molecule": "CCCN1CCC[C@@H]2Cc3n[nH]cc3C[C@H]21", "note": "[Quinpirole]", "values": [{"measurement": "R-SAT Eff (%)", "setting": "[6]", "value": "131 ± 14", "unit": "%"}, {"measurement": "EC50", "setting": "[6]; R-SAT pEC50", "value": 1.26, "unit": "µM"}, {"measurement": "BRET2 Eff %", "setting": "[7]", "value": "91 ± 5", "unit": "%"}, {"measurement": "EC50", "setting": "[7]", "value": 3.98, "unit": "µM"}, {"measurement": "EC50", "setting": "[8]", "value": 2.51, "unit": "µM"}, {"measurement": "PI Hydrolysis Eff (%)", "setting": "[8]", "value": "88 ± 13", "unit": "%"}]}, {"molecule": "CCCN1CCCC(c2cccc(O)c2)C1", "note": "(single isomer, unassigned; (-)) [(−)-3-PPP, [3-(3-hydroxyphenyl)-N-n-propyl]piperidine]", "values": [{"measurement": "EC50", "setting": "[1]", "value": 0.316, "unit": "µM"}, {"measurement": "EC50", "setting": "[2]", "value": 0.01, "unit": "µM"}, {"measurement": "EC50", "setting": "[3]", "value": 0.02, "unit": "µM"}]}]}
